In experiment [1] the test system is Myzus persicae. Briefly: Aphicidal activity against Myzus persicae (green peach aphid) in cabbage leaf at 200 to 800 ppm after 2 days.
Experiment [2] deals with Tetranychus urticae. Briefly: Acaricidal activity against Tetranychus urticae (two-spotted spider mite) in French bean leaf at 800 ppm after 2 days.
Experiment [3] deals with Myzus persicae. Briefly: Aphicidal activity against Myzus persicae (green peach aphid) in cabbage leaf at 800 ppm after 2 days.
Experiment [4] has as its system Myzus persicae. Briefly: Aphicidal activity against Myzus persicae (green peach aphid) in cabbage leaf at <50 ppm after 2 days.
The test system of experiment [5] is Tetranychus urticae. Briefly: Acaricidal activity against Tetranychus urticae (two-spotted spider mite) in French bean leaf at <50 ppm after 2 days.
In experiment [6] the test system is Tetranychus urticae. Briefly: Acaricidal activity against Tetranychus urticae (two-spotted spider mite) in French bean leaf at 200 to 800 ppm after 2 days.

This is a selection: effects in other tests are not listed, and their absence says nothing.

For the compound `CCOP(=O)(SC(C)CC)N1CCSC1` (stereo not drawn), the Activity in the experiment with Myzus persicae [1] is > 90%; in the experiment with Tetranychus urticae [2], < 90%.

On to `CCOP(=O)(SC(C)CC)N1CCCC1` (stereo not drawn), for which the Activity in the experiment on Myzus persicae [3] and in the experiment on Tetranychus urticae [2] was < 90% in each case.

On to `CCCSP(=O)(OCC)N1CCOC1=O` (stereo not drawn), for which the Activity in the experiment with Myzus persicae [4] and in the experiment with Tetranychus urticae [5] was > 90% each time.

With `CCOP(=O)(SC)N1CCOC1=O` (stereo not drawn), the Activity in the experiment on Myzus persicae [1] and in the experiment with Tetranychus urticae [6] was > 90% in each case.

The values above are taken from ChEMBL document CHEMBL3044645, “Synthesis and Pesticidal Activities of N-Phosphinoyl Heterocycles” (J Pestic Sci, 1997).
